Biological target: T1, Histone acetyltransferase KAT8 (Homo sapiens, UniProt Q9H7Z6)
T1 sequence (Q9H7Z6 whole entry): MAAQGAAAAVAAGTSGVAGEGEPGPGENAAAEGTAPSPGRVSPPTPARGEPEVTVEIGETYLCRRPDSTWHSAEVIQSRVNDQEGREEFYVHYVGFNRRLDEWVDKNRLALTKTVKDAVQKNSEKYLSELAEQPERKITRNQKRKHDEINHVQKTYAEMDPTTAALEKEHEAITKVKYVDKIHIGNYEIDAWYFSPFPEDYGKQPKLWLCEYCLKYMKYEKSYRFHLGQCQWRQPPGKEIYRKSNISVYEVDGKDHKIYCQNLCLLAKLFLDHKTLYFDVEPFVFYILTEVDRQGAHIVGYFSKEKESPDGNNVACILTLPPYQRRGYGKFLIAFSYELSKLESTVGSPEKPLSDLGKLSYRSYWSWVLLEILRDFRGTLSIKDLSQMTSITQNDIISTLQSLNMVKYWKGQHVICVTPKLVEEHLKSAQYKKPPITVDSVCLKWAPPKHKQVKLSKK
Assay: Inhibition of MOF (unknown origin)

SMILES: CCCCCCCCCCCCCCCc1cccc(O)c1C(=O)O [ANACARDIC ACID]
- IC50: 43 µM

— ChEMBL document CHEMBL4265983, “Discovery and biological evaluation of thiobarbituric derivatives as potent p300/CBP inhibitors” (Bioorg Med Chem, 2018)
